{"source": "PubChem BioAssay AID1159607", "about": "(Small Molecule Screening Facility, UW Madison, 2016)", "note": "This is a selection; strong and weak results do not stand in their true shares. Active and inactive are the calls of the source. Cut-off read from the data, not from the text of the source: active = FP signal below about 40; inactive = the rest."}
{"tested_on": "RMI core complex (RMI1/RMI2) binding to FANCM MM2 peptide, human", "assay": "disruptors of RMI1/RMI2 association with MM2 peptide – biochemical, fluorescence polarization, human, primary screen (AID 1159607)", "settings": "RMI core complex with F-MM2 peptide, at 33 µM, hits give low values"}
{"smiles": "OCCSCCO", "FP signal (polarization)": "inactive: 49"}
{"smiles": "C/C1=C2N=C(/C=C3N=C(/C(C)=C4\\[N-][C@@](C)([C@@H]5N=C1[C@](C)(CCC(=O)NC[C@@H](C)OP(=O)([O-])O[C@H]1[C@@H](O)[C@@H](n6cnc7cc(C)c(C)cc76)O[C@@H]1CO)[C@H]5CC(N)=O)[C@@](C)(CC(N)=O)[C@@H]4CCC(N)=O)[C@@](C)(CC(N)=O)[C@@H]\\3CCC(N)=O)C(C)(C)[C@@H]/2CCC(N)=O.[C-]#N.[Co+3]", "FP signal (polarization)": "inactive: 61"}
{"smiles": "O=[N+]([O-])C1([N+](=O)[O-])COCOC1", "FP signal (polarization)": "inactive: 60"}
